# Binding of CDR-mutated scFvs to a peptide of the spike HR2 region

Data: MIT Lincoln Laboratory AlphaSeq set, Li et al. 2023, doi:10.1038/s41467-023-39022-2, as distributed in FLAb.

Target peptide (SARS-CoV-2 spike, HR2 region): PDVDLGDISGINAS

Each scFv is VH, three GGGGS repeats, VL, as in the parent Ab-14, and differs from it in the CDRs of the light chain only.
VH: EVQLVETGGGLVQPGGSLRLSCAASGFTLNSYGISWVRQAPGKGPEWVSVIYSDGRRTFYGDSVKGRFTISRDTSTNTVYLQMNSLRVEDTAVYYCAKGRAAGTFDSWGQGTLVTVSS
VL: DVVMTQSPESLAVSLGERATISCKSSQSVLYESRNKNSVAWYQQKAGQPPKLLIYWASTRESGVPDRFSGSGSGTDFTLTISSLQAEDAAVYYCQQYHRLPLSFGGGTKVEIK

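Phage display of a naive human antibody library on the peptide gave the parent. This is the validation round: designs drawn from the data on random variants, tested in the same kind of assay. Their group label is 14L_En_HC (En: ensemble of fine-tuned language models; HC: hill climbing; a sequence that several methods proposed may carry one label only). In AlphaSeq, yeast of one mating type display the scFv and yeast of the other type display the target. Binding brings cells together so that they mate, and sequencing counts the barcode pairs among the diploids. The ratio of observed to expected reads was calibrated, replicate by replicate, on BCL2-family standards whose Kd was known from biolayer interferometry. Each pool was mated in six replicate cultures.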

Variants are written as CDR1, CDR2 and CDR3 of the light chain (limits as in the source). Parent: KSSQSVLYESRNKNSVA, WASTRES, QQYHRLPLS. Scale: log10 of Kd in nM, estimated from mating counts; low values are strong binders. Replicates are averaged; those with no signal do not enter the mean. A pair that was not seen in that replicate is written "nd"; this usually means weak binding, but a binder can also be missed. Background: pairings of all light chain designs with three empty control strains gave a value in 4% of cases (median 2.64, 5th percentile 1.59). Values in that range, when seen in few replicates, are hard to tell from nonspecific mating. For each scFv, signals with the empty controls are counted beside the result, with their mean in brackets. Of ten entries with the parent sequence, four were seen in most replicates (averages 0.34 to 2.37), three in one and three in none, so single entries are noisy. The range of this assay differs from that of the first round, and the authors advise against merging the two. In the paper, a design with two or fewer of six values counts as a poor binder.

| # | CDR-L1 | CDR-L2 | CDR-L3 | log10 Kd (nM) by replicate | log10 Kd (nM), mean | signal with controls |
|---|---|---|---|---|---|---|
| 1 | HISQMVMYGSCNVNNVA | QVSTREE | QQYHRLPLS | 1.13 0.28 0.69 0.54 0.50 0.77 | 0.65 | 0 of 18 |
| 2 | KLSATYRYESQNKNSIA | EMSTRAS | QCYHRLPLS | 1.03 1.14 2.08 1.88 1.07 2.05 | 1.54 | 2 of 18 (3.21) |
| 3 | KLYNMTGIESHAKNSLA | DANRRED | QQYHRLPLS | 0.31 0.17 -0.12 -0.01 -0.04 0.23 | 0.09 | 0 of 18 |
| 4 | KLLQSTVIESFNKNNVA | EMSTRES | QSYDRLPLS | 2.43 1.43 1.90 1.35 2.10 2.93 | 2.02 | 0 of 18 |
| 5 | MISDLLMYGSRNKNSVA | DLSTRGS | QQYHRLPLS | 0.56 0.67 0.64 0.33 0.62 0.91 | 0.62 | 1 of 18 (3.46) |
| 6 | KLSISYLFESQEKNSIA | ENSTREA | QHYHRLPLS | nd nd nd nd nd nd | nd | 1 of 18 (2.44) |
| 7 | KLLQVTENMSLNRNSVA | HMSTRED | QQYNRLPLS | 0.69 0.45 0.78 0.24 0.78 0.72 | 0.61 | 0 of 18 |
| 8 | HISYSMQHLSKNKNSVA | NQQTRET | QQYHRLPLS | 0.36 0.63 1.13 0.46 0.34 0.53 | 0.57 | 0 of 18 |
| 9 | HISQSHGMTSRNKNSVA | ENSTRED | QQYDRLPLS | 1.37 4.12 1.12 0.38 1.20 2.20 | 1.73 | 0 of 18 |
| 10 | TLTGVMDMTSKNVNSVA | DLTTRGN | QQYHRLPLS | 0.80 0.48 0.55 0.44 0.46 0.59 | 0.55 | 1 of 18 (3.98) |
| 11 | KISQMSTIESIQHNSVA | QTSTRES | QQYDRLPLS | 0.90 0.83 0.56 1.05 0.91 1.03 | 0.88 | 1 of 18 (3.73) |
| 12 | TISQSAQMEHHNKNSVA | DLNVRGS | QQYDRLPLS | 0.23 0.24 0.29 -0.05 0.24 0.37 | 0.22 | 2 of 18 (3.07) |
| 13 | TIGPFLMTESHNKNNVA | GMQTRER | QQYHRLPLS | 0.35 0.31 0.31 0.13 0.04 0.47 | 0.27 | 0 of 18 |
| 14 | KLSISHMVESINKSNVA | EMVTRES | QQYDRLPLS | 0.74 1.06 0.68 0.67 0.59 1.16 | 0.81 | 0 of 18 |
| 15 | IISGSMLMQSRNKNSVA | NAETREY | QHYDRLPLS | 1.48 2.01 0.60 1.49 1.88 1.75 | 1.54 | 1 of 18 (2.45) |
| 16 | KLPQATMQESVSKNSVA | ELSTRGS | QQYHRLPLS | 0.64 0.88 0.77 0.71 0.91 0.97 | 0.81 | 1 of 18 (1.67) |
| 17 | KLSQVTHSESRNKNSIA | EMVTREV | QQYDRLPLS | 1.76 1.49 2.02 1.76 1.66 2.03 | 1.79 | 1 of 18 (1.81) |
| 18 | IITQSVMQESRNKSNVA | NTAERES | QQYDRLPLI | 2.69 4.55 nd 1.88 4.31 2.13 | 3.11 | 1 of 18 (3.29) |
| 19 | HFSQVTMYGYWNKNSVA | QTSTREE | QQYDRLPLS | 0.24 0.20 -0.08 0.17 0.38 -0.05 | 0.14 | 2 of 18 (2.74) |
| 20 | IVSQSVLGGSRNLNSVA | QTSERNY | QQYDRLPLS | 0.57 1.11 1.16 2.67 0.62 1.33 | 1.24 | 0 of 18 |
| 21 | MISDLTMYGSRNKNSVA | DSSTRGK | QQYHRLPLS | -0.19 -0.45 -0.35 -0.46 -0.46 -0.24 | -0.36 | 0 of 18 |
| 22 | KLAQVTGYESYVRNSVA | QMSTRAE | QDYNRLPLS | 0.76 0.85 0.70 0.72 0.49 0.68 | 0.70 | 2 of 18 (2.41) |
| 23 | IFSQSVLMGQMTRNSVA | QASTRFN | QQYHRLPLI | 0.65 1.39 nd nd 0.88 nd | 0.97 | 0 of 18 |
| 24 | TLTQVQGMESHNKNSVA | DLSTRGN | QQYHRLPLS | 0.52 0.27 0.28 0.47 0.33 0.30 | 0.36 | 0 of 18 |
| 25 | KLSMSYRYEMENKNSIA | ELVTRMS | QQYHRLPLS | 0.88 0.95 0.71 1.13 0.92 1.12 | 0.95 | 0 of 18 |
| 26 | MMSQLFMYGSRNYNSVA | QASTRES | QQYDRLPLI | 1.96 1.33 1.66 2.10 0.90 1.68 | 1.60 | 0 of 18 |
| 27 | NISQSFMTESVWRNSVA | HQSTREQ | QQYDRLPLS | 0.82 0.83 0.69 1.50 0.90 1.24 | 0.99 | 1 of 18 (1.96) |
| 28 | MFSQSVMYGSFMRNSVA | QTSTRES | QQYDRLPLS | nd 4.06 0.83 2.41 0.70 1.12 | 1.82 | 0 of 18 |
| 29 | KISSLTLYESVNKNSIA | EMSTRPS | QSYHRLPLS | 0.76 0.50 -0.08 0.34 0.20 0.60 | 0.39 | 0 of 18 |
| 30 | KIMQTLNYEQFNVSNVA | GQETRER | QSYHRLPLS | nd 0.77 1.53 nd nd nd | 1.15 | 1 of 18 (1.29) |
| 31 | MISDLTGYGSRNKNSVA | DLSTRGS | QQYHRLPLS | 0.21 0.29 0.12 0.20 0.29 0.39 | 0.25 | 1 of 18 (1.75) |
| 32 | TIGQVTMQLSRNKNSVA | DASTSED | QQYDRLPLS | 1.28 0.94 1.37 0.38 0.72 1.27 | 0.99 | 0 of 18 |
| 33 | KIMQSLNYLQFNVSNVA | GQETRER | QSYHRLPLS | 1.28 nd nd 2.94 2.87 1.55 | 2.16 | 0 of 18 |
| 34 | KLMQMTLTEGYFKNSVA | QASTREN | QSYHRLPLS | nd 2.12 2.24 3.12 2.82 2.83 | 2.63 | 2 of 18 (2.62) |
| 35 | MLSDLVKMGVRETNSVA | DNSTRGS | QQYDRLPLS | 1.13 0.74 1.07 0.62 0.59 0.62 | 0.79 | 1 of 18 (1.99) |
| 36 | ALGDVTRMEQNKKNSIA | DMSNRES | QQYHRLPLS | 0.08 0.01 0.15 -0.12 0.11 0.09 | 0.05 | 3 of 18 (3.09) |
| 37 | KIGGVTNGISRSKNSVA | EQSTRED | QQYNRLPLI | 0.85 0.76 1.34 0.88 1.08 1.02 | 0.99 | 0 of 18 |
| 38 | HISQSVGMTSFNKNSVA | ENSTREK | QQYDRLPLS | nd nd nd nd 1.60 nd | 1.60 | 1 of 18 (1.32) |
| 39 | KLGGVTEYEMSNHNSVA | QMTTRES | QQYHRLPLS | 0.51 0.32 0.27 0.18 0.31 0.43 | 0.34 | 1 of 18 (2.85) |
| 40 | SLAESAHMESRNKNSVA | DNSTRES | QHYDRLPLS | nd nd nd 1.79 nd nd | 1.79 | 1 of 18 (3.75) |
| 41 | KLGDMVHTESRNKNSIA | DMRTRES | QQYNRLPLS | -0.23 -0.40 -0.36 -0.48 -0.50 -0.23 | -0.37 | 2 of 18 (3.01) |
| 42 | TISQSMLYLSNLKNSIA | QAETRES | QQYHRLPIS | 0.98 1.00 0.72 0.82 0.70 0.77 | 0.83 | 0 of 18 |
| 43 | QLSGPMVSESKNKNSVA | EFSTRGS | QQYHRLPLS | 1.10 0.76 0.57 1.17 0.69 0.96 | 0.87 | 0 of 18 |

Picked from the list: the 5 lowest averages where every replicate gave a value.

| CDR-L1 | CDR-L2 | CDR-L3 | log10 Kd (nM) by replicate | log10 Kd (nM), mean | signal with controls |
|---|---|---|---|---|---|
| KLGDMVHTESRNKNSIA | DMRTRES | QQYNRLPLS | -0.23 -0.40 -0.36 -0.48 -0.50 -0.23 | -0.37 | 2 of 18 (3.01) |
| MISDLTMYGSRNKNSVA | DSSTRGK | QQYHRLPLS | -0.19 -0.45 -0.35 -0.46 -0.46 -0.24 | -0.36 | 0 of 18 |
| ALGDVTRMEQNKKNSIA | DMSNRES | QQYHRLPLS | 0.08 0.01 0.15 -0.12 0.11 0.09 | 0.05 | 3 of 18 (3.09) |
| KLYNMTGIESHAKNSLA | DANRRED | QQYHRLPLS | 0.31 0.17 -0.12 -0.01 -0.04 0.23 | 0.09 | 0 of 18 |
| HFSQVTMYGYWNKNSVA | QTSTREE | QQYDRLPLS | 0.24 0.20 -0.08 0.17 0.38 -0.05 | 0.14 | 2 of 18 (2.74) |